Earlier results in article PMC2630426 (Journal of medicinal chemistry, 2008).

Target: δ opioid receptor (Rattus norvegicus, UniProt P33533)
Settings: read-out: IC50^δ; somatostatin-derived μ opioid antagonist; cited from earlier work

For “H-D-Phe-c[Cys-Tyr-D-Trp-Orn-Thr-Pen]-Thr-NH2 (disulfide) [CTOP]”, the IC50 is listed as 13.5 µM.
